{
  "source": "patent US20220143116A1",
  "about": "(priority 2019, published 2022)",
  "tested_on": "mAPOBEC3",
  "assay_type": "cell-based, murine",
  "data": [
    {"substance": "TNFα", "values": [
      {"measurement": "induction of mAPOBEC3", "value": "sufficient to induce mAPOBEC3"}
    ]}
  ]
}
